Assays:
Conditions in all cases: Mus musculus
[1] = test system: B16; test: Difference in body weight in grams between test and control animals at a dose of 6.75 mg/kg intraperitoneally
[2] = test system: B16; test: Percent of median lifetime of test animals divided by the median lifetime of control animals at a dose of 54 mg/kg intraperitoneally; toxic
[3] = test system: B16; test: Difference in body weight in grams between test and control animals at a dose of 54 mg/kg intraperitoneally
[4] = test system: B16; test: Percent of median lifetime of test animals divided by the median lifetime of control animals at a dose of 13.5 mg/kg intraperitoneally
[5] = test system: B16; test: Difference in body weight in grams between test and control animals at a dose of 27 mg/kg intraperitoneally
[6] = test system: B16; test: Antitumor activity in B16 Melanoma system animals is indicated by survivors on day 4 at a dose of 54 mg/kg intraperitoneally
[7] = test system: B16; test: Percent of median lifetime of test animals divided by the median lifetime of control animals at a dose of 27 mg/kg intraperitoneally
[8] = test system: B16; test: Antitumor activity in B16 Melanoma system animals is indicated by survivors on day 4 at a dose of 27 mg/kg intraperitoneally
[9] = test system: B16; test: Antitumor activity in B16 Melanoma system animals is indicated by survivors on day 4 at a dose of 13.5 mg/kg intraperitoneally
[10] = test system: B16; test: Antitumor activity in B16 Melanoma system animals is indicated by survivors on day 4 at a dose of 6.75 mg/kg intraperitoneally
[11] = test system: B16; test: Percent of median lifetime of test animals divided by the median lifetime of control animals at a dose of 6.75 mg/kg intraperitoneally
[12] = test system: B16; test: Difference in body weight in grams between test and control animals at a dose of 13.5 mg/kg intraperitoneally

Structure (SMILES): CC(=O)OC1C(=O)[C@@]2(C)[C@H]([C@H](OC(=O)c3ccccc3)[C@]3(O)CC(OC(=O)C(OC(=O)CCC(=O)O)C(NC(=O)c4ccccc4)c4ccccc4)C(C)=C1C3(C)C)[C@]1(OC(C)=O)CO[C@@H]1C[C@@H]2O (some centres not stated)
- Weight difference [1]: 0 g
- T/C [2]: Toxic
- Weight difference [3]: -0.4 g
- T/C [4]: 264%
- Weight difference [5]: -0.8 g
- Activity [6]: 10
- T/C [7]: 314%
- Activity [8]: 10
- Activity [9]: 10
- Activity [10]: 10
- T/C [11]: 230%
- Weight difference [12]: 0.6 g
